Assay: Disassembly of the thiomaleamic acid linker / release of doxorubicin in acidic pH, LCMS
Format: physicochemical
Details: pH 4.5 (50 mM citric acid, 150 mM NaCl), 37° C., over 72 h
Experimental: The material was incubated for 20 h at 37° C. and complete hydrolysis confirmed by LCMS. The resulting thiomaleamic acid construct was then transferred into a pH 4.0 or pH 5.0 buffer (50 mM citric acid, 150 mM sodium chloride) on PD MiniTrap G-25 desalting columns and the eluate concentrated with ultrafiltration columns (5 kDa MWCO, Sartorius).
The samples were incubated at 37° C. and aliquots withdrawn and analysed by LCMS after 0.5, 2, 5, 24 and 48 h.
The anti-CEA-DOX conjugate was prepared as described and purified on PD MiniTrap G-25 desalting columns. The material was incubated for 20 h at 37° C. and complete hydrolysis to the desired thiomaleamic acid construct confirmed by LCMS (required mass 27,528 Da). The buffer-pH (PBS, pH 7.4) was then changed to pH 4.5 (50 mM citric acid, 150 mM sodium chloride) via PD MiniTrap G-25 desalting columns and the eluate concentrated with ultrafiltration columns (5 kDa MWCO).
The thiomaleamic acid construct was incubated at 37° C. and aliquots analysed after 0.5, 2, 5, 24 and 48 h by LCMS. […] The appearance of free doxorubicin could be monitored in addition to the anti-CEA maleic acid.
Trastuzumab-Fab-DOX conjugate 2 was prepared as described. […] The antibody conjugate was incubated at 37° C. and aliquots were analysed after 2, 6, 24, 48 and 72 h by LCMS.

Trastuzumab-Fab-DOX conjugate 2
conversion to Trastuzumab-Fab-maleic anhydride with release of doxorubicin: quantitative conversion
